Experimental findings from patent US20240245793A1, “PSD-95 INHIBITORS AND USES THEREOF” (priority 2021, published 2024) are described below.

Where two headings read alike, the source gives them in different places.

The test system of the data set is HeLa cells stably expressing HaloGFP. Put plainly: Chloroalkane penetration assay (CAPA), membrane permeability and cellular uptake. The data set is classed as cell-based. An excerpt: Since PSD-95 is located intracellularly, it is essential for any drug targeting PSD-95 to efficiently cross the cell membrane. To assess the cellular permeability and delivery to the cytosol of the compounds as defined herein, the cellular chloroalkane penetration assay (CAPA) may be used (Peraro et al. 2018). This assay takes advantage of a modified haloalkane dehalogenase designed to covalently bind chloroalkane (CA) molecules. A HeLa cell line expressing a fusion protein comprising a HaloTag, a green fluorescent protein (GFP) and a mitochondria-targeting peptide is used to report cytosolic delivery. The general format of the CAPA is a pulse-chase assay (Deprey & Kritzer, 2020). Cells expressing the HaloTag enzyme are incubated with CA-tagged peptides. […] Following a washing step, the cells are incubated with a CA-tagged dye that quantitatively penetrates the cell membrane and reacts with remaining unreacted HaloTag sites (chase step). Flow cytometry is used to measure the fluorescence intensity of the cells and the measured fluorescence is inversely proportional to the amount of CA-peptides that reach the penetrated the cells and can thus be used to assess cytosolic delivery. The obtained data is commonly expressed as CP50 values, the concentration at which 50% cell penetration is observed. The CP50 value of a compound may be measured as described in example 4. […]

In turn, `CC[C@H](C)[C@H](NC(=O)CCOCCOCCN(CCOCCOCCC(=O)N[C@H](C(=O)N[C@@H](CCC(=O)O)C(=O)N[C@H](C(=O)N[C@@H](CC(=O)O)C(=O)N[C@H](C(=O)O)C(C)C)[C@@H](C)O)[C@@H](C)CC)C(=O)[C@H](CCCCN)NC(=O)[C@H](CCCCN)NC(=O)[C@H](Cc1c[nH]c2ccccc12)NC(=O)[C@H](CCCCN)NC(=O)[C@H](CCSC)NC(=O)[C@H](CCCNC(=N)N)NC(=O)[C@H](CCCNC(=N)N)NC(=O)[C@H](CC(N)=O)NC(=O)[C@H](CCC(N)=O)NC(=O)[C@H](Cc1ccccc1)NC(=O)[C@H](Cc1c[nH]c2ccccc12)NC(=O)[C@@H](NC(=O)[C@H](CCCCN)NC(=O)[C@@H](NC(=O)[C@H](CCC(N)=O)NC(=O)[C@H](CCCNC(=N)N)NC(=O)CCC(=O)NCCOCCOCCCCCCCl)[C@@H](C)CC)[C@@H](C)CC)C(=O)N[C@@H](CCC(=O)O)C(=O)N[C@H](C(=O)N[C@@H](CC(=O)O)C(=O)N[C@H](C(=O)O)C(C)C)[C@@H](C)O` [Compound 47] registered a CP50 of 5.0 ± 0.4 µM.
Take `CC[C@@H](C)[C@@H](NC(=O)[C@@H](CCCCN)NC(=O)[C@H](NC(=O)[C@@H](CCC(N)=O)NC(=O)[C@@H](CCCNC(=N)N)NC(=O)CCC(=O)NCCOCCOCCCCCCCl)[C@H](C)CC)C(=O)N[C@H](Cc1c[nH]c2ccccc12)C(=O)N[C@H](Cc1ccccc1)C(=O)N[C@H](CCC(N)=O)C(=O)N[C@H](CC(N)=O)C(=O)N[C@H](CCCNC(=N)N)C(=O)N[C@H](CCCNC(=N)N)C(=O)N[C@H](CCSC)C(=O)N[C@H](CCCCN)C(=O)N[C@H](Cc1c[nH]c2ccccc12)C(=O)N[C@H](CCCCN)C(=O)N[C@H](CCCCN)C(=O)N(CCOCCOCCC(=O)N[C@H](C(=O)N[C@@H](CCC(=O)O)C(=O)N[C@H](C(=O)N[C@@H](CC(=O)O)C(=O)N[C@H](C(=O)O)C(C)C)[C@@H](C)O)[C@@H](C)CC)CCOCCOCCC(=O)N[C@H](C(=O)N[C@@H](CCC(=O)O)C(=O)N[C@H](C(=O)N[C@@H](CC(=O)O)C(=O)N[C@H](C(=O)O)C(C)C)[C@@H](C)O)[C@@H](C)CC` [Compound 49]: the CP50 (CA-tagged NPEG4-(IETDV)2 with various CPP-tags, 4 h at 37° C., mean ± SEM (Table 11, FIG. 8)) turned out to be 18.8 ± 1.5 µM.
